Test system: dopamine in the striatum
Experiment: Microdialysis in Sprague-Dawley rats
Assay type: in vivo
Conditions: 50 mg/kg ip, compared to conventional L-DOPA, FIG. 1

[2H]C([2H])(c1ccc(O)c(O)c1)[C@]([2H])(N)C(=O)O [d3-L-DOPA]
half life of deu-dopamine in the striatum/brain: prolonged

Reference: US20200121812A1 (Teva Pharmaceuticals International GmbH, priority 2015, published 2020)
